Literature values, collected in article PMC6358775, “Elucidation of Vasodilation Response and Structure Activity Relationships of N^2,N^4-Disubstituted Quinazoline 2,4-Diamines in a Rat Pulmonary Artery Model” (Molecules, 2019).

Test system: α1 adrenergic receptor
Conditions: α1 adrenergic receptor antagonist; ChEMBL substructure search; cited from earlier work

COc1cc2nc(N3CCN(C(=O)C4CCCO4)CC3)nc(N)c2cc1OC (stereo not shown) [Terazosin]
Activity: 7 nM
